Binding of CDR-mutated scFvs to a peptide of the spike HR2 region

The measurements come from Engelhart et al. 2022 (doi:10.1038/s41597-022-01779-4) through the FLAb antibody collection.

Binding partner: SARS-CoV-2 spike HR2 peptide, sequence PDVDLGDISGINAS.

Parent: Ab-14, a human scFv built as VH, a (GGGGS)3 linker, VL. Only the CDRs of the heavy chain vary.
VH: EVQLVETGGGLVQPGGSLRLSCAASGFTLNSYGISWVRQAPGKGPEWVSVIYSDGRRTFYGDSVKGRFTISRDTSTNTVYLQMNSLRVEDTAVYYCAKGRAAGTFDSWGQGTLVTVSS
VL: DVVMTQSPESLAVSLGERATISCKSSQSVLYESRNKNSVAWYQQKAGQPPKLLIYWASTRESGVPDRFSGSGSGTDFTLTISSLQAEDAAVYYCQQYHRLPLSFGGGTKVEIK

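The starting antibody came from a phage panning campaign against this peptide. AAYL49 was designed without a model: most single CDR substitutions and a random sample of double and triple ones. Affinity was read by AlphaSeq, a pooled yeast mating assay with surface-displayed partners. Binding brings cells together so that they mate, and sequencing counts the barcode pairs among the diploids. A regression on co-assayed BCL2-family reference pairs converts the normalised counts of each replicate to an apparent Kd. Mating was done three times.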

Variants are written as CDR1, CDR2 and CDR3 of the heavy chain (limits as in the source). Parent: GFTLNSYGIS, VIYSDGRRTFYGDSVK, GRAAGTFDS. All variants listed here change G61 of the VH, counted from its first residue. Values are apparent Kd, the geometric mean of the replicates that gave a signal; lower means stronger binding. Where no diploid with the target was found in any replicate, the entry reads "nd": below detection, most likely a poor binder, though not proof of it. Entries are sorted by rising average, undetected variants last.

* GFTLNSYGIS, VIYSDGVRTFDIDSVK, GRAAGTFDS: 7.5 nM (3 of 3 replicates)
* GFTINSYGIS, VIYSDGRRTFYNDYVK, GRAAGTFDS: 9.6 nM (3 of 3 replicates)
* GFTPNSYGIS, VIYSDGRRTFYCDSVK, GRAAGHFDS: 65 nM (1 of 3 replicates)
* GFTLNSYGIS, VIYSDGRRTFYLDSVK, GRWDGTFDS: 120 nM (3 of 3 replicates)
* LFTLNSYGIS, VIYSDGRREFYTDSVK, GRAAGTFDS: 720 nM (3 of 3 replicates)
* GFTLNSYGIS, VDYSDGRRTFYSDSVK, GRAAGTFDS: 780 nM (1 of 3 replicates)
* DFTLNSYGHS, VIYSDGRRTFYKDSVK, GRAAGTFDS: 1.1 µM (1 of 3 replicates)
* GFKLNSYGIS, VIYSDGRRTFYNDSVK, GRAAGTFDS: 1.4 µM (3 of 3 replicates)
* GFTLNSYGIS, VIYSDGRRTFEWDSVK, GRAAGTFDE: 2.3 µM (1 of 3 replicates)
* GFTLNSYGIS, VAYSDGRRTFYWDSVK, GRAAGDFDS: 10 µM (2 of 3 replicates)
* GFTLNSYGIS, VIYSDGRITFYRDSKK, GRAAGTFDS: 11 µM (1 of 3 replicates)
* GFTLNSYGIS, VIYSDGRRQFRFDSVK, GRAAGTFDS: 25 µM (2 of 3 replicates)
* GFTLNSYGIS, VIYSDGRIMFYADSVK, GRAAGTFDS: 45 µM (1 of 3 replicates)
* GFTLNSYGIS, VIYWDGRRTFYHDSVP, GRAAGTFDS: 51 µM (1 of 3 replicates)
* GATLNSYGIS, VIYSDGVRTFYMDSVK, GRAAGTFDS: 270 µM (1 of 3 replicates)
* GFTLNSSGIS, VIYSDGRRTFYMDSVK, GRAAGTFDS: 360 µM (2 of 3 replicates)
* QFTLNSYGIS, VIYSDGRRTFYWDSVK, RRAAGTFDS: nd (0 of 3 replicates)
* GFTLNSYGIR, VIYSDGRRTFYADSVK, GRAAPTFDS: nd (0 of 3 replicates)
* GFTLNSYGIS, AIYSDGMRTFYVDSVK, GRAAGTFDS: nd (0 of 3 replicates)
* GFTLNSYGIH, VIYSDGRRTFYWDSVK, GRAAGTVDS: nd (0 of 3 replicates)
* GFTLNSYGIS, VIYSDGRRTSYYDSVK, LRAAGTFDS: nd (0 of 3 replicates)
* GFTLNSYGIS, VIYSDGVRTFYVDSVK, GRAEGTFDS: nd (0 of 3 replicates)
* GFQLNSYGIS, VIYSDGRRMFYWDSVK, GRAAGTFDS: nd (0 of 3 replicates)
* GFTLNSYGIE, VIYSDGRRTFYEDSVK, GRAAGTFDK: nd (0 of 3 replicates)
* GFTLNSYGIS, VIYSDGRRCPYDDSVK, GRAAGTFDS: nd (0 of 3 replicates)
* GFTLNSYGIS, VIYSDGRRTFYKDSVG, GRAAGTFLS: nd (0 of 3 replicates)
* GATLNSYGIS, VIYSDGRRTFYNVSVK, GRAAGTFDS: nd (0 of 3 replicates)
* GFTLNSEGIS, VIYSDSRRTFYYDSVK, GRAAGTFDS: nd (0 of 3 replicates)
* GFTLNSYGIS, VIYSDGRRTHYQDSVK, GRAAHTFDS: nd (0 of 3 replicates)
* GFTLNSYGIS, VDYSDGRRTFYADSLK, GRAAGTFDS: nd (0 of 3 replicates)

Top 3 of the variants detected in all replicates, tightest first:

CDR-H1	CDR-H2	CDR-H3	Kd (apparent)	replicates with signal
GFTLNSYGIS	VIYSDGVRTFDIDSVK	GRAAGTFDS	7.5 nM	3/3
GFTINSYGIS	VIYSDGRRTFYNDYVK	GRAAGTFDS	9.6 nM	3/3
GFTLNSYGIS	VIYSDGRRTFYLDSVK	GRWDGTFDS	120 nM	3/3

Three control strains display no target. For library AAYL49, 15% of the pairings with them gave a signal, with a median of 11 µM and one signal in twenty below 680 nM, so weak values seen in few replicates may be background. In this assay the parent's reference entry averaged 4.4 nM; its copy inside this library read 13 µM (one replicate of three).